Here are results for one compound from BindingDB's records for 31597043.

Chains of the proteins cited; added tags and fusions are not shown.
UniProt O15245, whole entry: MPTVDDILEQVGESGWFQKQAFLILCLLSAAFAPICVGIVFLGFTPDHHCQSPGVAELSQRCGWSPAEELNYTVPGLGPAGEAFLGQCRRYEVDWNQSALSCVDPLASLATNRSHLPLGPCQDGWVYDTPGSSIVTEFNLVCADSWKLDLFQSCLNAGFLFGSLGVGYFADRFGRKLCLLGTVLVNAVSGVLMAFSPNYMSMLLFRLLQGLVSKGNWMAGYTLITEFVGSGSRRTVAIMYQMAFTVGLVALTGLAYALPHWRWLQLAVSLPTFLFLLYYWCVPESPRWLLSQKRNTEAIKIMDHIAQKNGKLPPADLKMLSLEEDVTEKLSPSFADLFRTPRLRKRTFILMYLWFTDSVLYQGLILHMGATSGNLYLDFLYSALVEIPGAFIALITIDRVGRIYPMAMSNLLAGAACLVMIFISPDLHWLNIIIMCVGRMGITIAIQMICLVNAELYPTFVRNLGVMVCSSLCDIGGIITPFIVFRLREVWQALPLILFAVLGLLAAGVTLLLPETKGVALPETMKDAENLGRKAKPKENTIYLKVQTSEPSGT

As usually defined, the IC50 is the midpoint of a concentration-inhibition curve.

Only a part of the results on these compounds is given; other tests are left out.

The assay has as its target Solute carrier family 22 member 1 (Homo sapiens, UniProt O15245). Kind of assay: ASSAY_NAME: ChEMBL_1823590 (CHEMBL4323354) DESCRIPTION: Inhibition of human OCT1 expressed in HEK293 cells assessed as reduction in ASP+ substrate uptake by microplate reader based analysis.

For the compound `CCC(=O)N(c1ccccc1)C1CCNCC1`, the IC50 turned out to be 118 µM.
